Literature values as cited in PMC9260974 (BMC Pharmacology & Toxicology, 2022).

Conditions: lisinopril; cited from earlier work

For NCCCC[C@H](N[C@@H](CCc1ccccc1)C(=O)O)C(=O)N1CCC[C@H]1C(=O)O [lisinopril], the Plasma protein binding is given as “does not bind to other plasma proteins other than ACE” and the Solubility is given as “high solubility”.
